Measurements taken from publication PMC6815956, “Bioinspired Self-assembling Peptide Hydrogel with Proteoglycan-assisted Growth Factor Delivery for Therapeutic Angiogenesis” (Theranostics, 2019).

Experiments:
[1] = GF loading efficiency (ELISA); assay type: physicochemical; conditions: GF/HS complex in QLK/LRK peptide hydrogel, n = 6
Method: (§1) At specific time intervals, the supernatants were collected, stored at -80 °C, and fresh release buffer was compensated. […] After adding the stop solution, the absorbance of the hydrogel at 450/540 nm was recorded by SpectraMax Plus 384 Microplate Reader.
(§2) It was the major challenge for scaffold-based GF delivery that how to maintain the release rate of incorporated GFs.

[2] = GF release profile (ELISA); assay type: physicochemical; conditions: from GAG-assisted QLK/LRK hydrogel, PBS w/ 0.05 % Tween 20, 1 % BSA, 37 °C, n = 6
Method: as §1, §2

Substance: VEGF
- loading efficiency [1]: approximately 75.9 ± 1.1%
- cumulative release, total ([2]; 28 days, ELISA): approximately 68%
- cumulative release, initial ([2]; day 3, ELISA): 32%
